Source: publication doi:10.1101/2025.02.07.636106

Sequences of proteins named here, by UniProt entry; tags and fusion partners are left off.
UniProt Q9UBB5, whole entry: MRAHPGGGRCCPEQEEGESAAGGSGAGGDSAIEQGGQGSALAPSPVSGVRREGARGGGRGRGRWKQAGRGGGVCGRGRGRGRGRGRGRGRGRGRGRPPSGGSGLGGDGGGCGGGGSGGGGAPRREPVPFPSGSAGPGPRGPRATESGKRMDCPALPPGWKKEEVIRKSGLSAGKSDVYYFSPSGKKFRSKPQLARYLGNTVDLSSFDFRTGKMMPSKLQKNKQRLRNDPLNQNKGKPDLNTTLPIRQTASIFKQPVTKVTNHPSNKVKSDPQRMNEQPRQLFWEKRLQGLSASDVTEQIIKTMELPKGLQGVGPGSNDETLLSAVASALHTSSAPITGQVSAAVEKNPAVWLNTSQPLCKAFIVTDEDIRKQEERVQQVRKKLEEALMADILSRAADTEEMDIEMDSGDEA

Biological target: Methyl-CpG-binding domain protein 2 (UniProt Q9UBB5)
Assay: cross-link between two proteins; affinity purification or IP with mass spectrometry; cross-linking mass spectrometry

Question: Which “listed as a hit” value does the source give for Histone deacetylase 2, Q92769 here?
Answer: yes
